# Apparent affinities of Ab-14 variants for a coronavirus HR2 peptide

From the AlphaSeq antibody data of Li et al. 2023 (doi:10.1038/s41467-023-39022-2), copy in the FLAb collection.

Antigen: PDVDLGDISGINAS, a 14-residue peptide of the SARS-CoV-2 spike HR2 region.

Ab-14 is the parent antibody, in scFv form: VH, then three GGGGS repeats, then VL. The heavy chain is unchanged in all variants.
VH: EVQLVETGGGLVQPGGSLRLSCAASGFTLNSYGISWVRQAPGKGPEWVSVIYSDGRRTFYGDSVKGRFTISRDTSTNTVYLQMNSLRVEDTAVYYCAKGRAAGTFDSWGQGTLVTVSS
VL: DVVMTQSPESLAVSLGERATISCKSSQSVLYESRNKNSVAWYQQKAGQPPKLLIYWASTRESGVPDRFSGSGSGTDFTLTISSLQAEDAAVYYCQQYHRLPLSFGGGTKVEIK

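Phage display of a naive human antibody library on the peptide gave the parent. These sequences belong to a second round, designed from the earlier measurements on random variants of the parent. Several design methods are mixed in this list. Affinity was read by AlphaSeq, a pooled yeast mating assay with surface-displayed partners. The frequency of each diploid, read from paired DNA barcodes, reflects how well the two displayed proteins bind. Scores were corrected for input abundance and mapped to Kd with protein pairs of known affinity run in the same pool. Mating was done six times.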

The parent's light chain CDRs are KSSQSVLYESRNKNSVA, WASTRES, QQYHRLPLS; each variant's own CDRs replace them letter for letter.
The read-out is the apparent dissociation constant on a log10 scale (nM): the lower, the stronger.
Replicates are averaged; those with no signal do not enter the mean.
"nd" marks a missing value. The strain was present, yet no cells mated with the target were sequenced in any replicate, which points to weak or no binding.
The parent sequence was in this pool as ten entries: three were never detected, three once, and four in most replicates, with averages from 0.34 to 2.37.

Result -0.49 (6 of 6 replicates), variant MISDLTMYGSRNKNNVA, DLSTRGS, QQYHRLPLS.
Result 0.54 (6 of 6 replicates), variant KVSMSWLYESRNWNSVA, NASLRES, QDYHRLPLS.
Result -0.10 (6 of 6 replicates), variant KLPQSGLYESRNKNSVA, QASTRES, QQYHRLPLS.
Result -0.08 (6 of 6 replicates), variant KSSISYLIESRNKNSVA, EASTREV, QQYHRLPLS.
Result -0.44 (6 of 6 replicates), variant KQSQSVLYESRNKNSIA, NANQREQ, QQYHRLPLS.
Result 1.11 (6 of 6 replicates), variant HMSQVTMYGMWMRNSVA, QTSTRET, QQYDRLPLS.
Result 2.81 (2 of 6 replicates), variant QLAMITGHQSVEKNNVA, EMETREN, QQYDRLPLS.
Result nd (0 of 6 replicates), variant KSSQSVLYESRNKNSVA, WASTREW, EQYHRLPLS.
Result -0.60 (6 of 6 replicates), variant KLSQSYMYESRNKNSVA, NASTRES, QQYHRLPLS.
Result 0.92 (5 of 6 replicates), variant QIDHPELTFQQNQYSIA, NASQSLD, QQYAQLPLM.
Result 3.12 (3 of 6 replicates), variant KISQMYRYEQQNSSSIA, EANEREQ, QSYHRLPLS.
Result 2.99 (3 of 6 replicates), variant VLGEMYGNMVMKHSSIA, DNTTRQD, QQYDRLPLS.
Result 1.60 (6 of 6 replicates), variant KSSECDLYESRNKNSVA, GASTRES, QQYHRLTLS.
Result 0.44 (6 of 6 replicates), variant KLQQSHLYESRMKNSVA, NASTRES, QQYHRLPLS.
Result -0.05 (6 of 6 replicates), variant KLSQSVLYESRQKNSVA, NASQRLS, QQYHRLPLS.
Result 0.71 (6 of 6 replicates), variant KFSQSNLYEDRMQNNVA, NASQREQ, QDYHRLPLS.
Result -0.28 (6 of 6 replicates), variant ASSQSWLYEGRNKNSVA, GASTRED, QQYHRLPLS.
Result -0.20 (6 of 6 replicates), variant KVDQWWDYESRNKNSVA, NASTRER, QQYHRLPLS.
Result 0.93 (6 of 6 replicates), variant KVSMSQLYESRNFNSVA, NASTREE, QQYHRLPLS.
Result -0.04 (6 of 6 replicates), variant KTGQGVDYESRNKNSVA, GASYRES, QQYHRLPLS.
Result -0.18 (5 of 6 replicates), variant KQSQSVLYESVNKNSVA, EASTRES, QQYHRLPLS.
Result -0.02 (6 of 6 replicates), variant MDSQSVLYESRNKNSVA, NASTRES, QQYHRLPLS.
Result 0.02 (6 of 6 replicates), variant SISGFMKSSMAHKNNVA, DMTNREN, QQYDRLPLS.
Result 1.70 (4 of 6 replicates), variant KFSQSVLYEMRAKNSIA, WASTRES, QQYHRLPLS.
Result 0.57 (6 of 6 replicates), variant KSSQSVLYESRNKPSVA, EASTRES, QQYHRLPLS.
Result 0.27 (6 of 6 replicates), variant KVSQSVLYESGTKASVA, NASHRES, QQYHRLPLS.
Result 0.32 (6 of 6 replicates), variant KLSQSVLYESRNQNSVA, NASTRMS, QQYHRLPLS.
Result 2.03 (6 of 6 replicates), variant TITGMVEEIGTTQKNIA, EGEFRCM, QQYSRLPLS.
Result 1.21 (6 of 6 replicates), variant RIDSVWEMLTNRAQNIA, NATTVIA, QDYMRLPLV.
Result 0.95 (6 of 6 replicates), variant QSSQSFLYESRNKNSVA, GASTRES, QQYHRLPLS.
Result 0.38 (6 of 6 replicates), variant IVSQLMIWGMHAKNSIA, EAQTRLN, QQYDRLPLF.
Result -0.39 (6 of 6 replicates), variant KLEWSQLYWSRNSNSVA, NASTREE, QQYHRLPLS.
Result 0.13 (6 of 6 replicates), variant KSSFSYLYESRNENSVA, EASTREQ, QQYHRLPLS.
Result 1.95 (2 of 6 replicates), variant MISQVLNSLTHTGNNVA, DLQERED, QQYFRLPLS.
Result -0.06 (6 of 6 replicates), variant QIYQAMHTLSQHKDNVA, DVTERGN, QQYFRLPLS.
Result 0.03 (6 of 6 replicates), variant KVMQSQLGEMRNVNSVA, NASTRES, QQYHRLPLS.
Result 0.01 (6 of 6 replicates), variant KSEQSVYYGERNKNSVA, QASTRES, QQYHRLPLS.
Result 0.37 (6 of 6 replicates), variant TIGQSVHETSRIKNSVA, HATMRED, QQYDRLPLS.
Result -0.05 (6 of 6 replicates), variant FLEQSEEYESRMKNSVA, NASTRCS, QQYHRLPLS.
Result 0.17 (6 of 6 replicates), variant KLASVTGTEKVHGNNVA, EMETREK, QQYNRLPLS.
Result 0.48 (6 of 6 replicates), variant KSSQSGLYESGNKNSVA, HASTRES, QQYHRLPLS.
Result 1.96 (4 of 6 replicates), variant KSSQSVLYESRNKNSVA, WASVRED, QQYHRLPLS.
Result 0.01 (6 of 6 replicates), variant TLSDLMYMESRNVNSVA, DLVKRES, QQYHRLPLS.
Result 1.87 (6 of 6 replicates), variant HISMLTLQGMRHRNSVA, QMTTREN, QQYDHLPLA.
Result 0.20 (6 of 6 replicates), variant KLYQSMGYLSHNKNSIA, DMERREN, QQYHRLPLS.
Result 0.89 (6 of 6 replicates), variant KISMTYRYESQASNSIA, EMTTRAE, QSYHRLPLS.
Result 0.37 (6 of 6 replicates), variant MISDLTMYGSRNGNSVA, DLSTRGS, QQYHRLPLS.
Result 1.50 (2 of 6 replicates), variant IVSQLMLWGMHAKNSIA, EAQTRLN, QQYDRLPLM.
Result 0.74 (6 of 6 replicates), variant KVDISPHVQGMHKSGVA, EHDMRVG, QQYFRLPLA.
Result 0.49 (6 of 6 replicates), variant KLFQSWLYEQRQPNSVA, NASQRLL, QQYHRLPLS.
Result 0.10 (6 of 6 replicates), variant ALSHSMDMTSRNVNSVA, DLTTREN, QQYHRLPLS.

The range of this assay differs from that of the first round, and the authors advise against merging the two.
In the paper, a design with two or fewer of six values counts as a poor binder.
As a blank, each scFv also met three strains without target: over all light chain designs, 4% of these pairings were detected, typically at 2.64 and seldom below 1.59.